# Laboratory results taken from article PMC6278801.
# Key:
# [1] = target: ANF-RGC R^802C mutant (rat) (UniProt P18910)
# [2] = target: ANF-RGC ΔH1 mutant (rat) (UniProt P18910)
# [3] = target: ANF-RGC ΔH2 mutant (rat) (UniProt P18910)
# [4] = target: ANF-RGC ΔH3 mutant (rat) (UniProt P18910)
# [5] = target: ANF-RGC ΔH4 mutant (rat) (UniProt P18910)
# [6] = target: ANF-RGC ΔH5 mutant (rat) (UniProt P18910)
# [7] = target: wild type Atrial Natriuretic Factor Receptor Guanylate Cyclase (rat) (UniProt P18910)
# [8] = target: wild type Atrial Natriuretic Factor Receptor Guanylate Cyclase (rat) (UniProt P18910); remark: listed apart in the source
# [9] = target: ANF-RGC ΔH1 mutant (rat) (UniProt P18910); remark: listed apart in the source
# [10] = target: ANF-RGC ΔH2 mutant (rat) (UniProt P18910); remark: listed apart in the source
# [11] = target: ANF-RGC ΔH3 mutant (rat) (UniProt P18910); remark: listed apart in the source
# [12] = target: ANF-RGC R^802C mutant (rat) (UniProt P18910); remark: listed apart in the source
# [13] = target: ANF-RGC ΔH4 mutant (rat) (UniProt P18910); remark: listed apart in the source
# [14] = target: ANF-RGC ΔH5 mutant (rat) (UniProt P18910); remark: listed apart in the source
substance,measurement,setting,value
myristoylated neurocalcin δ (from UniProt P61602 1-193) (natural protein),"EC50 of myr-NCδ in modulating guanylate cyclase activity of COS cell membranes, 1 μM Ca^2+",[1],0.7 µM
same,"EC50 of myr-NCδ in modulating guanylate cyclase activity of COS cell membranes, 1 μM Ca^2+",[2],0.7 µM
same,"EC50 of myr-NCδ in modulating guanylate cyclase activity of COS cell membranes, 1 μM Ca^2+",[3],0.9 µM
same,"EC50 of myr-NCδ in modulating guanylate cyclase activity of COS cell membranes, 1 μM Ca^2+",[4],0.8 µM
same,"EC50 of myr-NCδ in modulating guanylate cyclase activity of COS cell membranes, 1 μM Ca^2+",[5],0.5 µM
same,"EC50 of myr-NCδ in modulating guanylate cyclase activity of COS cell membranes, 1 μM Ca^2+",[6],0.7 µM
same,"EC50 of myr-NCδ in modulating guanylate cyclase activity of COS cell membranes, 1 μM Ca^2+",[7],0.5 µM
same,"guanylate cyclase activity of COS cell membranes at increasing concentrations of myr-NCδ, 1 μM Ca^2+; highest value (basal 56; 5-fold) (pmol cGMP min^-1 (mg prot)^-1)",[8],278
same,"guanylate cyclase activity of COS cell membranes at increasing concentrations of myr-NCδ, 1 μM Ca^2+; highest value (basal 20; 5-fold) (pmol cGMP min^-1 (mg prot)^-1)",[9],105
same,"guanylate cyclase activity of COS cell membranes at increasing concentrations of myr-NCδ, 1 μM Ca^2+; highest value (basal 19; ∼4-fold) (pmol cGMP min^-1 (mg prot)^-1)",[10],78
same,"guanylate cyclase activity of COS cell membranes at increasing concentrations of myr-NCδ, 1 μM Ca^2+; highest value (basal 22; ∼5-fold) (pmol cGMP min^-1 (mg prot)^-1)",[11],109
same,"guanylate cyclase activity of COS cell membranes at increasing concentrations of myr-NCδ, 1 μM Ca^2+; highest value (basal 24; ∼5-fold) (pmol cGMP min^-1 (mg prot)^-1)",[12],124
same,"guanylate cyclase activity of COS cell membranes at increasing concentrations of myr-NCδ, 1 μM Ca^2+; highest value (basal 105; ∼3.5-fold) (pmol cGMP min^-1 (mg prot)^-1)",[13],346
same,"guanylate cyclase activity of COS cell membranes at increasing concentrations of myr-NCδ, 1 μM Ca^2+; highest value (basal 9; ∼4.5-fold) (pmol cGMP min^-1 (mg prot)^-1)",[14],40
